Experiments:
[1] = molecular target: T1, human serum albumin (HSA) (Homo sapiens, UniProt P02768); settings: 50 μM; HBSS1% (30% saliva, 1% DMSO) vs HBS1%; three times each; Fc3−Fc2, buffer injection subtracted; FIG. 6
[2] = molecular target: T1, human serum albumin (HSA); settings: stated as known; cited from earlier work

Protein sequences, listed by entry. Tags and fused reporters are not part of them. Residues count along the entry.
UniProt P02768, 25-609: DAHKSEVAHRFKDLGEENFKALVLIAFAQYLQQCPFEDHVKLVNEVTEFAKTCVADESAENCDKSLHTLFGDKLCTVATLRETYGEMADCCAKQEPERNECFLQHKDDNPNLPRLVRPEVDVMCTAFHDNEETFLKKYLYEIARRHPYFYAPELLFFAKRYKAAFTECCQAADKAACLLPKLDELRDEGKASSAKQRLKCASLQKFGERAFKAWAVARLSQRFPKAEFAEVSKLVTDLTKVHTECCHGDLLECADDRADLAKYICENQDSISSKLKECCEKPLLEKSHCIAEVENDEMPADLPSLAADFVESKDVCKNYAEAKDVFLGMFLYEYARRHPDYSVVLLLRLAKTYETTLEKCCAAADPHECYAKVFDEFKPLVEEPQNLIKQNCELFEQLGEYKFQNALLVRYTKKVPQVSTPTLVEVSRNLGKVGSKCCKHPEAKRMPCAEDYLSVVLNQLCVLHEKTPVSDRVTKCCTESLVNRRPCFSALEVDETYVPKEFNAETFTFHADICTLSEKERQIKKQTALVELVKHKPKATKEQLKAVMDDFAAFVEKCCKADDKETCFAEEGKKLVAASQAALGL

CCC(Cc1c(I)cc(I)c(O)c1I)C(=O)O (stereo not drawn) [iophenoxic acid, α-ethyl-3-hydroxy-2,4,6-triiodohydro-cinnamic acid]
binding to immobilized HSA, corrected sensorgrams, saliva-containing buffer versus pure buffer [1]: sensorgrams D (saliva-containing buffer) agree with the sensorgrams C (pure buffer)
binding to HSA [2]: known to bind to HSA

From patent US20060019313A1, “Method for detecting molecular surface interactions” (Biacore AB, priority 2004, published 2006)
